Molecular target: hsEH (Homo sapiens, UniProt P34913)
Test: human sEH inhibition (hsEH IC50)
Assay type: biochemical

Amino acid sequences for entries named in this document (tags omitted).
UniProt P34913, whole entry: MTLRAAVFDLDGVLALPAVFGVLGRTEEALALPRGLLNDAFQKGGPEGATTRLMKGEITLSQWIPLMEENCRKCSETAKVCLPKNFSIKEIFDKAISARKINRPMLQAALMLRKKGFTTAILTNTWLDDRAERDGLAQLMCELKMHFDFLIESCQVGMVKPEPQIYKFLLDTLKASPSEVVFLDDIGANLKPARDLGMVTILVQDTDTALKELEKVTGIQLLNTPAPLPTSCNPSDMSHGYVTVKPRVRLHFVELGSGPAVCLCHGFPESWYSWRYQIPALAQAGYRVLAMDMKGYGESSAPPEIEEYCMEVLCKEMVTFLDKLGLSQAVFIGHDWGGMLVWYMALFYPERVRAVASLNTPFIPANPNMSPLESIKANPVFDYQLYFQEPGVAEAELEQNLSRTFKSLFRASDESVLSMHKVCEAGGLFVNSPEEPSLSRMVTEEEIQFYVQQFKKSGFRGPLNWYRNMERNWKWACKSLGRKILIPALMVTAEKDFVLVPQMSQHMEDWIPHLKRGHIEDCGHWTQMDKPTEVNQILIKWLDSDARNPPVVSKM

SMILES: CNC(=O)c1ccc(O[C@H]2CC[C@H](NC(=O)Nc3ccc(OC(F)(F)F)cc3)CC2)cc1 [Compound A-18]
- IC50: 2 nM

— patent US11873288B2, “Inhibitors for soluble epoxide hydrolase (sEH) and fatty acid amide hydrolase (FAAH)” (The Regents of the University of California, priority 2016, dated 2024)
